Values quoted from earlier work, collected in patent publication US8200327B2.

Conditions: for lag time (time required to achieve peak plasma levels): electrotransport delivery

SMILES | lag time (time required to achieve peak plasma levels) | plasma concentration (simple diffusion, citrate buffer at pH 5)
CCC(=O)N(c1ccccc1)C1(COC)CCN(CCc2cccs2)CC1 | 1.5 h | did not produce any detectable plasma concentration
CCC(=O)N(c1ccccc1)C1CCN(CCc2ccccc2)CC1 | 1.5 h | –

Some compounds may have been tested in ways that are not shown here.
